Molecular target: T1, CXCR4 (Homo sapiens, UniProt P61073)
T1 construct: expressed in transfected cells; host or cells: CHO:CXCR4 cells (gift from Drs. David McDermott and Xiaoyuan Chen, NIH)
Test: Competitive binding assay: [125I]SDF-1α displacement on CHO:CXCR4 cells
Settings: read-out: IC50 (nM), Binding Affinity to CXCR4; [125I]SDF-1α competition on CHO:CXCR4 cells; given as ranges
Experimental: The Z138 mantle cell lymphoma cell line was given by Dr. Christian Steidl (BC Cancer) as a gift. The CHO:CXCR4 cell line was given by Drs. David McDermott and Xiaoyuan Chen (National Institutes of Health) as a gift. The cell line was cultured in a 5% CO2 atmosphere at 37° C. in a humidified incubator. The Z138 cells were incubated with IMDM medium (Life Technologies Corporations) and the CHO:CXCR4 cells were incubated with F12K medium (Life Technologies Corporations), both of which were supplemented with 10% fetal bovine serum (Sigma-Aldrich), 100 I.U./mL penicillin, and 100 μg/mL streptomycin (Penicillin-Streptomycin Solution).
CHO:CXCR4 cells were seeded at a density of 1×10^5 cells/well in 24-well poly-D-lysine coated plates (Corning BioCoat) and incubated with [^1251]SDF-1α (0.01 nM, PerkinElmer) and competing nonradioactive ligands ([…]). The cells, radioligand, and competing peptides were incubated for 1 h at 27° C. with moderate shaking. Following the incubation period, the supernatant was aspirated, followed by three washes with 1 mL of ice-cold PBS. Cells were harvested with 200 μL of trypsin and counted on a y counter. Data were plotted in GraphPad Prism 7 to determine IC50 values (GraphPad Software, Inc., La Jolla, CA). The values are reported as mean±standard deviation.

Protein sequences, listed by entry. Tags and fused reporters are not part of them.
UniProt P61073, whole entry: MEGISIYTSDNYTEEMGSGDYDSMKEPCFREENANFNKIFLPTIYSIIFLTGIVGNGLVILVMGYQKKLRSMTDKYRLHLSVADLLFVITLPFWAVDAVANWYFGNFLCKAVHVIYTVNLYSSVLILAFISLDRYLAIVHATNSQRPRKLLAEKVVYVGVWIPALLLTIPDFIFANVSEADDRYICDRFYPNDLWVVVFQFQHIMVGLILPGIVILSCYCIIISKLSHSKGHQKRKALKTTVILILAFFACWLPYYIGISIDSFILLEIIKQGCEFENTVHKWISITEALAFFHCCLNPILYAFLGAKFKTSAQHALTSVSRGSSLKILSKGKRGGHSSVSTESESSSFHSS

| Substance | IC50 [nM] |
| --- | --- |
| cyclo[Phe-Tyr-Lys(iPr)-DArg-(4-NH2)Phe-D-Ala-D-Glu]-Lys(iPr) | 10 to 50 |
| cyclo[Phe-Tyr-Lys(iPr)-D-Arg-2Nal-D-His-D-Glu]-Lys(iPr) | 1 to 10 |
| cyclo[Phe-Tyr-Lys(iPr)-D-Arg-2Nal-D-Dab-D-Glu]-Lys(iPr) | 1 to 10 |
| cyclo[Phe-Tyr-Lys(iPr)-D-Arg-2Nal-D-Glu-D-Glu]-Lys(iPr) | 10 to 50 |
| cyclo[Phe-(4-NH2)Phe-Lys(iPr)-D-Arg-2-Nal-D-Ala-D-Glu]-Lys(iPr) | 10 to 50 |
| cyclo[Phe-Tyr-Lys(iPr)-D-Arg-2Nal-His-D-Glu]-Lys(iPr) | 10 to 50 |
| cyclo[Phe-Tyr-Arg(Me)-D-Arg-2Nal-D-Ala-D-Glu]-Lys(iPr) | 1 to 10 |
| cyclo[Phe-Tyr-Lys(iPr)-D-Arg-2Nal-D-Asn-D-Glu]-Lys(iPr) | 1 to 10 |
| cyclo[Phe-hTyr-Lys(iPr)-D-Arg-2-Nal-Gly-D-Glu]-Lys(iPr) | 1 to 10 |
| cyclo[Phe-Tyr-Lys(iPr)-D-Arg-2Nal-D-Gln-D-Gu]-Lys(iPr) | 1 to 10 |
| cyclo[Phe-(3-1)Tyr-Lys(iPr)-D-Arg-2-Nal-Gly-D-Glu]-Lys(iPr) | 10 to 50 |
| cyclo[Phe-Tyr-Lys(iPr)-D-Arg-2Nal-D-Ser-D-Glu]-Lys(iPr) | 1 to 10 |
| cyclo[Phe-(4-NO2)Phe-Lys(iPr)-D-Arg-2-Nal-Gly-D-Glu]-Lys(iPr) | 10 to 50 |
| cyclo[Phe-Tyr-Lys(iPr)-D-Arg-2Nal-D-Ala-D-Glu]-Lys(iPr) | 1 to 10 |
| cyclo[Phe-(4-NH2)Phe-Lys(iPr)-D-Arg-2-Nal-Gly-D-Glu]-Lys(iPr) | 1 to 10 |

Source: patent publication US12616761B2, “CXCR4-targeting compounds” (PROVINCIAL HEALTH SERVICES AUTHORITY, priority 2020, dated 2026)
